2 compounds from paper PMC4704150 (Antimicrobial Agents and Chemotherapy, 2015) can be followed below.

This series is described as follows: Drug-drug interaction study, 2D regimen with warfarin. Type of series: in vivo, human healthy volunteers. The conditions noted are these: warfarin + 2D regimen, geometric mean (%CV).

Each structure is given as a SMILES string. Marks after values point to notes of the source that are not given here.

Consider `CC(=O)C[C@@H](c1ccccc1)c1c(O)c2ccccc2oc1=O` [S-Warfarin, S-warfarin], for which the “AUC (AUC∞), Coadministration” value was 11,000 (33)^b ng · h/ml.
Turning to `CC(=O)C[C@H](c1ccccc1)c1c(O)c2ccccc2oc1=O` [R-Warfarin, R-warfarin], the “AUC (AUC∞), Coadministration” value is 16,700 (19)^b ng · h/ml.
